Laboratory results: patent US20250129067A1 (Progentos Therapeutics, Inc., priority 2021, published 2025)

Chains of the proteins cited; added tags and fusions are not shown. Residues count along the entry.
UniProt P16234, 24-1089: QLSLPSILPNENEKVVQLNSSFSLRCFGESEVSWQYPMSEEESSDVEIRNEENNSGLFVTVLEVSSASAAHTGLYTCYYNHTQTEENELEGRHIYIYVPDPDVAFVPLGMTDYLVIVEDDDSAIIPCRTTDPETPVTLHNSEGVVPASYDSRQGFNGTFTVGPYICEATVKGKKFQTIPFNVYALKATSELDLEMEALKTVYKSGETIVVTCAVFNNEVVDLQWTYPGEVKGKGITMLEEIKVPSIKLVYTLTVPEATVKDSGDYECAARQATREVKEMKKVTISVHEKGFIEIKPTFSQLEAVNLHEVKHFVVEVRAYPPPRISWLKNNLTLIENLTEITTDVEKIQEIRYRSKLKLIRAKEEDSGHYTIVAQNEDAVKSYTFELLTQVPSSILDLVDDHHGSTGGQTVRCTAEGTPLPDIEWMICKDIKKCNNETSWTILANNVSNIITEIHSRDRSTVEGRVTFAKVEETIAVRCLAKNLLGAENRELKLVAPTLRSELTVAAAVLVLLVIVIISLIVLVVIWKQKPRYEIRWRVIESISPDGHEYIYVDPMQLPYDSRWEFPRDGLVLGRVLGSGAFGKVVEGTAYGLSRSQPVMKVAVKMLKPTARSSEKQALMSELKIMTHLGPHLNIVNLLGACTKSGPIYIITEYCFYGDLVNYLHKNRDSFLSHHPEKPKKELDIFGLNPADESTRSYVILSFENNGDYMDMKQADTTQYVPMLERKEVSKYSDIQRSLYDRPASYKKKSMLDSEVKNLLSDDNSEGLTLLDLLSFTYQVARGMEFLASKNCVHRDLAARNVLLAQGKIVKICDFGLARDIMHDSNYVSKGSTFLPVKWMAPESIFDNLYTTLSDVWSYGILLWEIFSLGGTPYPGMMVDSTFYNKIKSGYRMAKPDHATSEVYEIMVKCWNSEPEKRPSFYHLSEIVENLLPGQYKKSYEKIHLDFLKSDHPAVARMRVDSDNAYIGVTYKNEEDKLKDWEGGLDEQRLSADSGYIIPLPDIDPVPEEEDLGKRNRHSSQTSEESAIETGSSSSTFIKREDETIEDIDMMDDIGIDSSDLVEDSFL

Biological target: PDGFRα (Homo sapiens (Human), UniProt P16234)
Assay: PDGFRα kinase enzyme assay (Promega PDGFRα Kinase Enzyme System, ADP-Glo)
Format: biochemical
Conditions: 20 ng purified PDGFRα, 150 uM ATP, Poly (Glu4Tyr1) substrate, two hours, 11-point dose response; read-out: IC50 Values on PDGFRα Kinase Inhibition
Experimental: The PDGFRα enzyme assays were conducted per the manufacturer's directions (Promega PDGFRα Kinase Enzyme System and ADP Glo Assay Cat #V8011). […] 20 ng of purified PDGFRα protein was added to the test article. […] ADP-Glo was added to halt the kinase reaction and deplete the remaining ATP. Kinase detection reagent, containing luciferase and luciferin, was used to convert the ADP signal into luminescence. Luminescence was measured using a Molecular Devices Spectramax ID5 and compared to a standard curve to determine kinase activity. IC50s were calculated using Prism 9, Graphpad software.

IC50: 45 nM
Structure (SMILES): Cc1ccc(NC(=O)c2ccc(CN3CCN(C)CC3)cc2)cc1Nc1nc(-c2cccnc2)cs1 [Masitinib, masitinib, reference compound]
